This assay deals with Staphylococcus aureus.

Usually MIC stands for the smallest concentration in the dilution series that meets the test's criterion for growth inhibition. A higher MIC goes with a need for much substance. GENTAMICIN gave an MIC of 0.5 µg/mL.

The values are drawn from ChEMBL document CHEMBL1145539, “Activity of daptomycin alone and in combination with rifampin and gentamicin against Staphylococcus aureus assessed by time-kill methodology” (2007).
